The assay has as its target Orexin receptor type 2 (Homo sapiens, UniProt O43614). In words: Displacement of [3H]4-(2,6-Difluoro-4-methoxybenzyl)-2-(5,6-dimethoxypyridin-3-yl)-2H-1,2,4-benzothiadiazin-3(4H)-one 1,1-dioxide from human wild-type OX2 receptor expressed in baculovirus infected Sf21 insect cell membranes measured after 90 mins by liquid scintillation counting method.

Chains of the proteins cited; added tags and fusions are not shown.
UniProt O43614, whole entry: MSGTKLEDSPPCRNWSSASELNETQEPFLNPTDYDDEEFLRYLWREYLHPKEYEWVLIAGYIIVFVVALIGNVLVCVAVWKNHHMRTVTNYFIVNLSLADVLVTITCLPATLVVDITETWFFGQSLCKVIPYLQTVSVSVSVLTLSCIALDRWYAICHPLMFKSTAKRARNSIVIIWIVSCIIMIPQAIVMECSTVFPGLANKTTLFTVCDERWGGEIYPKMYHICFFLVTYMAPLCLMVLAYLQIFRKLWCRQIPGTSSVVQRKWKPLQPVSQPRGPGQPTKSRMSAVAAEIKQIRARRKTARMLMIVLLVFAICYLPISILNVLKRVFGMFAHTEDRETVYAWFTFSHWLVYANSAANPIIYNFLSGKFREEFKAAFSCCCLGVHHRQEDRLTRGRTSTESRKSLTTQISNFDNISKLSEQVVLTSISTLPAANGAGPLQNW

A word on the Ki: it is the equilibrium dissociation constant of an inhibitor or competing ligand from its target. A low value points to a stronger hold on the target.

As to `Cc1ncc(OC[C@@]2(c3cccc(F)c3)C[C@H]2C(=O)Nc2ccc(F)cn2)c(C)n1` [LEMBOREXANT], the inhibitory constant (Ki) was 0.501 nM.

The values are drawn from ChEMBL document CHEMBL4376869, “Comparison of Orexin 1 and Orexin 2 Ligand Binding Modes Using X-ray Crystallography and Computational Analysis” (J Med Chem, 2020).
